The subject of assay [1] is sites of clot formation (mesenteric vessel injury, mucosal resection of the stomach). The experiment in a line: Real-time intraoperative NIR fluorescence thrombus detection after mesenteric vessel injury and mucosal resection of the stomach. Type of assay: in vivo, Yorkshire pigs. The note with it: 30-kg pigs; i.v. 30 minutes after injuries, no active bleeding. On the procedure: (§1) Anesthesia was induced with an intraperitoneal injection of pentobarbital (40 mg/kg) to mice and an intramuscular injection of ketamine (35 mg/kg) and xylazine (5 mg/kg) to rabbits. Pig anesthesia was induced with 4.4 mg/kg intramuscular Telazol (Fort Dodge Labs, Fort Dodge, Iowa), and anesthesia was maintained through a 7-mm endotracheal tube with 1.5% isoflurane/98.5% O2 at 5 L/min. After anesthesia, a laparotomy was made in the midline; the stomach and a loop of small intestine were externalized. A mesenteric vessel of the mice and pigs was lacerated and then permitted to clot, resulting in intramesenteric thrombus formation. […]
(§2) The intraoperative NIR fluorescence imaging system optimized for animal surgery has been described previously in detail.^12 Briefly, it is composed of 2 wavelength-isolated excitation sources, one generating 0.5 mW/cm^2 of 400- to 700-nm “white” light and the other generating 5 mW/cm^2 of 725- to 775-nm light over a 15-cm diameter field of view. Simultaneous photon collection of color video and NIR fluorescence images is achieved with custom-designed optics that maintains separation of the white light and NIR fluorescence (>795 nm) channels. […]
(§3) After injection of FBG800, signal to background ratio (SBR) was measured by using as background the signal from an identically sized and shaped region of interest over adjacent mesenteric vessels or GI mucosa. […]

For assay [2], the system named is site of thrombus formation (mesenteric vessel injury). The experiment in a line: Real-time intraoperative NIR fluorescence thrombus detection after mesenteric vessel injury. Type of assay: in vivo, CD-1 mice. The note with it: mice; i.v. 30 minutes after mesenteric vessel injury; N=4. On the procedure: as §1, §2, §3
Assay [3] has as its system sites of injury (gastrotomy, mucosal injury of the stomach). The assay can be described thus: Intraoperative thrombus detection with ^125I-FBG, counts at injured vs uninjured stomach tissue. Type of assay: in vivo, New Zealand White rabbits. The note with it: 15 μCi/kg, N=3. On the procedure:
Anesthesia was induced with an intraperitoneal injection of pentobarbital (40 mg/kg) to mice and an intramuscular injection of ketamine (35 mg/kg) and xylazine (5 mg/kg) to rabbits. Pig anesthesia was induced with 4.4 mg/kg intramuscular Telazol (Fort Dodge Labs, Fort Dodge, Iowa), and anesthesia was maintained through a 7-mm endotracheal tube with 1.5% isoflurane/98.5% O2 at 5 L/min. After anesthesia, a laparotomy was made in the midline; the stomach and a loop of small intestine were externalized. A mesenteric vessel of the mice and pigs was lacerated and then permitted to clot, resulting in intramesenteric thrombus formation. For rabbits and pigs, a gastrotomy was made, and the posterior wall mucosa was pulled through. A 5-mm mucosectomy was performed with a scalpel. The injured area was allowed to clot and marked with a 4-0 silk suture for identification.
1.7 mg/kg FBG800 protein (10 nmol/kg of fluorophore) was injected intravenously in mice (N=4) and pigs (N=3). 15 μCi/kg was injected intravenously in rabbits (N=3). This dose is approximately 100 ng and is much less than the total fibrinogen in the rabbit. Injections occurred 30 minutes before or 30 minutes after injury as described below. For controls, the same dose of CW800-labeled human serum albumin (HSA800, N=3)^16 or radiolabeled albumin (^125I-HSA, N=3) was used.
After injection of FBG800, signal to background ratio (SBR) was measured by using as background the signal from an identically sized and shaped region of interest over adjacent mesenteric vessels or GI mucosa. After injection of ^125I-FBG, a standard Geiger counter was swept over the areas of injury to determine whether the site of injury could be recognized simply on the basis of meter readings. The entire stomach was then removed and opened. A portion of stomach away from both the gastrotomy site and the site area of mucosal injury was resected and used for background measurements. Next, the gastrotomy site was resected. Finally, the area of mucosal injury was recognized and resected. All tissues were weighed, placed in scintillation vials, and counted in a standard scintillation counter. Statistical comparisons were made with a Student t test.

[4] abbreviates: rabbits injected i.v. 30 minutes after gastrotomy.
Setting [5] is: rabbits injected i.v. 30 minutes before gastrotomy, counted 3 hours after the injury.

With “HSA800: CW800-labeled human serum albumin, control protein”, in assay [1], the “Accumulation at the sites of clot formation / injury” value was “no accumulation”. In addition, in assay [2], the “Accumulation at the site of thrombus formation” value is “no accumulation”.
On to “^125I-HSA: ^125I-radiolabeled human serum albumin, control, purchased from Amersham Biosciences”, for which, in assay [3] (setting [4]), the “Ratio of the counts at the site of (mucosal) injury as compared to background, uninjured mucosa” value came out at 1.2±0.1 and the “Ratio of the counts at the site of the gastrotomy as compared to the uninjured mucosa” value is listed as 1.0±0.4. Moreover, in assay [3] (setting [5]), the “Ratio of the counts at the site of (mucosal) injury as compared to background, uninjured mucosa” value was found to be 1.7±1.0 and the “Ratio of the counts at the site of the gastrotomy as compared to the uninjured mucosa” value stood at 1.0±0.7.

Values taken from patent US20070196278A1, “Compositions and methods for locating an internal bleeding site” (Cold Spring Diagnostics, Inc., priority 2004, published 2007).
